According to publication PMC11387697, “Defining the functional properties of cyclopropane fatty acid synthase from Pseudomonas aeruginosa PAO1” (The Journal of Biological Chemistry, 2024):

Test system: C[S+](CC[C@H](N)C(=O)O)C[C@H]1O[C@@H](n2cnc3c(N)ncnc32)[C@H](O)[C@@H]1O
Experiment: cells, lysate or membranes named
Conditions: 50:50 POPE:POPG 100 nm unilamellar vesicles 1 mg/ml, 200 mM potassium acetate, pH 7.5, 37 °C

With PA-CFAS (Pseudomonas aeruginosa PAO1) the Km was 26 ± 3 µM and the kcat was 0.0417 ± 0.0013 s⁻¹.
